Series [1] can be described thus: stability against pelletizing.
Series [2] has as its system microorganism causing Treponema dysentery. Briefly: experiments against the microorganism causing Treponema dysentery.

SMILES strings stand for the structures.

Turning to `CC=CC=CC1OC(O)(C(CC)C(=O)NCC=CC=C(C)C(OC)C(C)C2OC(C=CC=CC=C(C)C(=O)C3=C(O)CCNC3=O)C(O)C2O)C(O)C(O)C1(C)C` (centres unmarked) [dihydromocimycin], in series [1], the stability against pelletizing result is “good stability”. Besides, the “activity against the microorganism causing Treponema dysentery compared with tylosin” value in series [2] is given as “markedly higher activity against the microorganism than tylosin”.

The record behind these values is US4062948A, “Dihydromocimycin antibiotics” (Gist-Brocades N.V., priority 1970, dated 1977).
